Measured values published in PMC10114720.

Experiments:
[1] = neutral chemical: log K is the mean of log D over all measurements at the three pH values (D shown independent of pH, paired t-test); sd is the table's stddev. PDMS sheets cleaned by Soxhlet with ethyl acetate; batch shaking method with a mixture of all chemicals at several PDMS-mass to water-volume ratios and spiked levels; vials shaken on an orbital shaker at room temperature in the dark, sampled at two equilibration times; PDMS extracts and water quantified by LC-HRMS (Orbitrap); D from the slope of C_PDMS on C_w or their ratio; details: PDMS (polydimethylsiloxane silicone sheet); phosphate buffer at three target pH values (the paper's methods)
[2] = PDMS sheets cleaned by Soxhlet with ethyl acetate; batch shaking method with a mixture of all chemicals at several PDMS-mass to water-volume ratios and spiked levels; vials shaken on an orbital shaker at room temperature in the dark, sampled at two equilibration times; PDMS extracts and water quantified by LC-HRMS (Orbitrap); D from the slope of C_PDMS on C_w or their ratio; value is the mean over that pH's experiments (individual experiments in the SI's concentrations table), sd is the table's stdev; details: PDMS (polydimethylsiloxane silicone sheet), phosphate buffer at three target pH values (the paper's methods)
[3] = monoprotic acid or base: log K of the neutral species extrapolated from the linear regression of D on the neutral fraction (from pKa and pH; the paper's eq. for monoprotic IOCs), the slope giving K of the neutral species; replicates column holds the table's 95% confidence limits. PDMS sheets cleaned by Soxhlet with ethyl acetate; batch shaking method with a mixture of all chemicals at several PDMS-mass to water-volume ratios and spiked levels; vials shaken on an orbital shaker at room temperature in the dark, sampled at two equilibration times; PDMS extracts and water quantified by LC-HRMS (Orbitrap); D from the slope of C_PDMS on C_w or their ratio; details: PDMS (polydimethylsiloxane silicone sheet); phosphate buffer at three target pH values (the paper's methods)

Row | log K PDMS/w (neutral species) [1] | log D PDMS/w (apparent distribution ratio at the stated pH) ([2]; pH 3) | log D PDMS/w (apparent distribution ratio at the stated pH) ([2]; pH 7.4) | log D PDMS/w (apparent distribution ratio at the stated pH) ([2]; pH 11.5) | log K PDMS/w (neutral species) [3] | Compound
1 | -0.09 log units; D and K as the pape | 0.005556 log units; D and K as the pape | -0.2088 log units; D and K as the pape | -0.07875 log units; D and K as the pape | – | NC(=O)N1c2ccccc2CC(O)c2ccccc21 (stereo not drawn)
2 | 1.117 log units; D and K as the pape | 1.071 log units; D and K as the pape | 1.119 log units; D and K as the pape | 1.161 log units; D and K as the pape | – | CC(=O)CCCCn1c(=O)c2c(ncn2C)n(C)c1=O
3 | 1.238 log units; D and K as the pape | 1.225 log units; D and K as the pape | 1.222 log units; D and K as the pape | 1.269 log units; D and K as the pape | – | NC(=O)N1c2ccccc2C=Cc2ccccc21
4 | – | – | – | – | 0.1028 log units; D and K as the pape | COc1cc(NS(=O)(=O)c2ccc(N)cc2)nc(OC)n1
5 | – | 1.122 log units; D and K as the pape | 0.6177 log units; D and K as the pape | – | 1.168 log units; D and K as the pape | CC1CCc2cc(F)cc3c(=O)c(C(=O)O)cn1c23 (stereo not drawn)
6 | – | 1.742 log units; D and K as the pape | 1.734 log units; D and K as the pape | -0.3475 log units; D and K as the pape | – | CCCc1nc2c(C)cc(-c3nc4ccccc4n3C)cc2n1Cc1ccc(-c2ccccc2C(=O)O)cc1
7 | – | – | – | – | 0.7731 log units; D and K as the pape | COc1cc(Cc2cnc(N)nc2N)cc(OC)c1OC
8 | – | 1.102 log units; D and K as the pape | – | – | – | CCOc1nc2cccc(C(=O)O)c2n1Cc1ccc(-c2ccccc2-c2nnn[nH]2)cc1
